Legend:
Type in all cases: cell-based
[1] = system: pooled human liver microsomes; assay: In vitro formation of methemoglobinemic metabolites with pooled human liver microsomes and human erythrocytes
CYP 1A2 = target: T1, CYP 1A2 (Homo sapiens, UniProt P05177); assay: Methemoglobinemic metabolite formation with Baculosomes, CYP 1A2; conditions: mean ± S.D. of four
T1 construct: purchased; host or cells: insect cells infected with recombinant baculovirus

The chains behind the UniProt entries cited, without tags or fusion partners. Where a name states a change or a piece, a line headed by the entry shows the natural chain unless it says otherwise. Residues count along the entry.
UniProt P05177, 2-516 limits assumed: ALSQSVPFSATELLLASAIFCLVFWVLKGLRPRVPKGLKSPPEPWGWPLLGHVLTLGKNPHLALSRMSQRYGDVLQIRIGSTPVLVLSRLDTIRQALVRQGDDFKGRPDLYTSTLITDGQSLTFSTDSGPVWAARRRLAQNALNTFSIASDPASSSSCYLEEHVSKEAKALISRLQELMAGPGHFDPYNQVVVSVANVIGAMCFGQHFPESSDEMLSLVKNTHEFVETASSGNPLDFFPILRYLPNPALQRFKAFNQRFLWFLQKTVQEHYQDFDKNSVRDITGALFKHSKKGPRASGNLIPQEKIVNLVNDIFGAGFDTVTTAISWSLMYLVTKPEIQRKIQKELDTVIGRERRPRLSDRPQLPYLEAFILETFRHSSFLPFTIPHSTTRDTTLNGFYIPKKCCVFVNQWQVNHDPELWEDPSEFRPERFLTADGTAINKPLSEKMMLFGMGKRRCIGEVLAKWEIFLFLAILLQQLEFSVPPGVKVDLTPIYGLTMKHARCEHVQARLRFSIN
UniProt P10635, whole entry: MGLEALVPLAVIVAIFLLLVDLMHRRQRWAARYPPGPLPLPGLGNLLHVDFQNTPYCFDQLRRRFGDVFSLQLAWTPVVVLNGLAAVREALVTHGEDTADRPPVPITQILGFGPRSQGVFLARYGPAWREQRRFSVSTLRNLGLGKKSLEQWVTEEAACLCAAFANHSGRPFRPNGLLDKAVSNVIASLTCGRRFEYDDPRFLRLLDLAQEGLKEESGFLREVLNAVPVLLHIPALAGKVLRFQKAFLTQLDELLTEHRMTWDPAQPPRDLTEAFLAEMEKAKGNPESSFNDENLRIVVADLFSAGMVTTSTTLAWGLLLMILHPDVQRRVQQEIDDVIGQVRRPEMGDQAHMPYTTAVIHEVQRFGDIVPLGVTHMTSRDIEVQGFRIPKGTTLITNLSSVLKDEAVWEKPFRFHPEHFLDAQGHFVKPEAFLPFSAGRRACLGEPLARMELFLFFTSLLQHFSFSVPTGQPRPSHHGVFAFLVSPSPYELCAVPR
UniProt P20813: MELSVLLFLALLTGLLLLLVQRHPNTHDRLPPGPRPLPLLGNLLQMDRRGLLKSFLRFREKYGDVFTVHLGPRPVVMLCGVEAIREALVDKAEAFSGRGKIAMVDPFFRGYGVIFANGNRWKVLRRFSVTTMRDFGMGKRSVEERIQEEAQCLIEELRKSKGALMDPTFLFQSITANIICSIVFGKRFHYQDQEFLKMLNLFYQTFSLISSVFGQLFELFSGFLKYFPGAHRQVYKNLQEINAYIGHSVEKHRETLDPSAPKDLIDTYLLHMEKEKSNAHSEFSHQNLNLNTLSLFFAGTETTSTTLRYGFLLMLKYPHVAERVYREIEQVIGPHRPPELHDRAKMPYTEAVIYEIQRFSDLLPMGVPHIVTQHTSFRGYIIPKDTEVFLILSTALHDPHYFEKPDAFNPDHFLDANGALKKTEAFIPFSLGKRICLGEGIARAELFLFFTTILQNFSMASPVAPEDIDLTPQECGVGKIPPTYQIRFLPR
UniProt P05181: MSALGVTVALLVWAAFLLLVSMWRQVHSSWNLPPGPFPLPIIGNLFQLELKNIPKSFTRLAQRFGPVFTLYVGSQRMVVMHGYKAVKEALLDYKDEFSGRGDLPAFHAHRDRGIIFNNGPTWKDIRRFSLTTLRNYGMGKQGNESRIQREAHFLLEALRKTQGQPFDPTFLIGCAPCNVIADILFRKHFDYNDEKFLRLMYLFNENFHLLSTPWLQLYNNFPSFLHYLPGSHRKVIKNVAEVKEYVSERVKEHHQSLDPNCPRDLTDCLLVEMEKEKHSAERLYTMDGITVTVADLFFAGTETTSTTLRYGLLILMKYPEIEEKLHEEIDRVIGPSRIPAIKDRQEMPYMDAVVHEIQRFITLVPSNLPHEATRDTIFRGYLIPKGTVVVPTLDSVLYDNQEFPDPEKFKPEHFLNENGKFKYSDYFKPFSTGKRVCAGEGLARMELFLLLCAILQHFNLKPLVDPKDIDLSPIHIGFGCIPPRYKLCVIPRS
UniProt P10632, whole entry: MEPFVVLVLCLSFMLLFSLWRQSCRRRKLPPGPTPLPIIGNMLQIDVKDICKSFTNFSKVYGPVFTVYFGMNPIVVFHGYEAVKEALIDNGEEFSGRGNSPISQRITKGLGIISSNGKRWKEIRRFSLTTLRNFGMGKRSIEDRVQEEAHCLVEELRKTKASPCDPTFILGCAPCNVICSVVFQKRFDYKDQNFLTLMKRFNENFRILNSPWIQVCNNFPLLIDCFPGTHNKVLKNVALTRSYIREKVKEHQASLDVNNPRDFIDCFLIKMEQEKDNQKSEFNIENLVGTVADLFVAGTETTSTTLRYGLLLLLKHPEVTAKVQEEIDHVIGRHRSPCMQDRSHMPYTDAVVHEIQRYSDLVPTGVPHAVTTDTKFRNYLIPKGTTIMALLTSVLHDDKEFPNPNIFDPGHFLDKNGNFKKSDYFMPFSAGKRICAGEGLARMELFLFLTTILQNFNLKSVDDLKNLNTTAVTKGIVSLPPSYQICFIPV
UniProt P33261, whole entry: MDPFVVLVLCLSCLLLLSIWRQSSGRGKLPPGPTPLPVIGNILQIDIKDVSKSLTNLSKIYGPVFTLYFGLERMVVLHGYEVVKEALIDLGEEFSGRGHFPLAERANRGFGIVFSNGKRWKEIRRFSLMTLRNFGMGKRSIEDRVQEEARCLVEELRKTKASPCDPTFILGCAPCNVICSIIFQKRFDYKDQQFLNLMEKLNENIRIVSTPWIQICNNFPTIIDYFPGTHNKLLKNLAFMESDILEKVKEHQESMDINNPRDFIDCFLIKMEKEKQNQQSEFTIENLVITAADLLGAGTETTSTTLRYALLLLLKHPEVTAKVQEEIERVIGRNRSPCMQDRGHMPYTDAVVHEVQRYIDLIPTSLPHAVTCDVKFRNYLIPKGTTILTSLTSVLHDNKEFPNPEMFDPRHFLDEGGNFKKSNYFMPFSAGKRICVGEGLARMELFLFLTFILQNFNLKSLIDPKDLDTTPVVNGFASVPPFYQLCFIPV
UniProt P11712, whole entry: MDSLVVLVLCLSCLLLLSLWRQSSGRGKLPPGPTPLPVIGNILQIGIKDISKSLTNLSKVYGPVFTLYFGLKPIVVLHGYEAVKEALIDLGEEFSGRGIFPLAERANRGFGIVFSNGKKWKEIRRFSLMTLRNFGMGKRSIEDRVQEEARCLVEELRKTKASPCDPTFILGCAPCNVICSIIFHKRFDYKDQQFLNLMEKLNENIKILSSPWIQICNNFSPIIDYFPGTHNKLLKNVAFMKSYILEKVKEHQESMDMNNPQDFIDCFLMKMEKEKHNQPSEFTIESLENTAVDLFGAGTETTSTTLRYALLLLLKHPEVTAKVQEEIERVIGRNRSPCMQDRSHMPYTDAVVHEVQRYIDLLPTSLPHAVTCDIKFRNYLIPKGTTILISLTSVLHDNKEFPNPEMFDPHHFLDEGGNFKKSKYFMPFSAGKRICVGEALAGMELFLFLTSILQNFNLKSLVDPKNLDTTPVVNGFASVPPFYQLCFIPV

CYP 2D6 = target: T2, CYP 2D6 (Homo sapiens, UniProt P10635); assay: Methemoglobinemic metabolite formation with Baculosomes, CYP 2D6; conditions: mean ± S.D. of four
T2 construct: purchased; host or cells: insect cells infected with recombinant baculovirus

CPY 2B6 = target: T3, CPY 2B6 (Homo sapiens, UniProt P20813); assay: Methemoglobinemic metabolite formation with Baculosomes, CYP 2B6; conditions: mean ± S.D. of four
T3 construct: purchased; host or cells: insect cells infected with recombinant baculovirus

CYP 2E1 = target: T4, CYP 2E1 (Homo sapiens, UniProt P05181); assay: Methemoglobinemic metabolite formation with Baculosomes, CYP 2E1; conditions: mean ± S.D. of four
T4 construct: purchased; host or cells: insect cells infected with recombinant baculovirus

CYP 2A6 = target: T5, CYP 2A6 (Homo sapiens, UniProt P11509); assay: Methemoglobinemic metabolite formation with Baculosomes, CYP 2A6; conditions: mean ± S.D. of four
T5 construct: purchased; host or cells: insect cells infected with recombinant baculovirus
T5 sequence (P11509 1-494): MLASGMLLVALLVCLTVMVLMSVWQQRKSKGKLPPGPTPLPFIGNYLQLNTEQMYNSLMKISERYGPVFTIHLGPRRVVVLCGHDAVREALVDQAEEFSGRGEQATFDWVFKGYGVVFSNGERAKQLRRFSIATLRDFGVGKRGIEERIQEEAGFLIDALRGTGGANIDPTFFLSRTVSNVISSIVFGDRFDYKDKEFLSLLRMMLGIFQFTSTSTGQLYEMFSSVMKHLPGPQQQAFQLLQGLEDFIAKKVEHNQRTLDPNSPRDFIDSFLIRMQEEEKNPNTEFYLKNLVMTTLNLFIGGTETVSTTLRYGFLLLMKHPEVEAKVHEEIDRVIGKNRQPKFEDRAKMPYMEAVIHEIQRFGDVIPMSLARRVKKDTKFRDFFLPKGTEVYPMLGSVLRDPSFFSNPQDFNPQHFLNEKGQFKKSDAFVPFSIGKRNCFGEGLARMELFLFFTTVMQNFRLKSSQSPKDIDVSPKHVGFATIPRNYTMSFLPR

CYP 2C8 = target: T6, CYP 2C8 (Homo sapiens, UniProt P10632); assay: Methemoglobinemic metabolite formation with Baculosomes, CYP 2C8; conditions: mean ± S.D. of four
T6 construct: purchased; host or cells: insect cells infected with recombinant baculovirus

CYP 2C19 = target: T7, CYP 2C19 (Homo sapiens, UniProt P33261); assay: Methemoglobinemic metabolite formation with Baculosomes, CYP 2C19; conditions: mean ± S.D. of four
T7 construct: purchased; host or cells: insect cells infected with recombinant baculovirus

CYP 2C9 = target: T8, CYP 2C9 (Homo sapiens, UniProt P11712); assay: Methemoglobinemic metabolite formation with Baculosomes, CYP 2C9; conditions: mean ± S.D. of four
T8 construct: purchased; host or cells: insect cells infected with recombinant baculovirus

COc1cc(NC(C)CCCN)c2ncccc2c1 (stereo not drawn) [Primaquine, primaquine, reference compound] was tested. Which “% methemoglobin formation, Pooled Human liver Microsomes” value ([1]; drug 100 μM, microsomes equivalent to 25 pmoles cytochrome P450, Mean ± S.D. of four) did it give?
The value was 17.060 ± 1.015%.

What about the “formation of methemoglobenemic metabolites, Azithromycin” value ([1]; pooled human Liver Microsomes, 8-aminoquinoline with Azithromycin) of the same compound?
Its value is 12.930 ± 2.515.

And the “formation of methemoglobenemic metabolites, Erythromycin” value ([1]; pooled human Liver Microsomes, 8-aminoquinoline with Erythromycin)?
Its value is 13.688 ± 0.470.

And the “formation of methemoglobenemic metabolites, Microsomes” value ([1]; pooled human Liver Microsomes, no macrolide)?
The value was 17.490 ± 0.913.

And the “% methemoglobin formed, CYP 1A2” value (CYP 1A2)?
Its value is 7.170 ± 0.744%.

What about the “% methemoglobin formed, CYP 2D6” value (CYP 2D6) of the same compound?
The value was 19.500 ± 1.728%.

What about the “% methemoglobin formed, CPY 2B6” value (CPY 2B6) of the same compound?
Its value is 16.880 ± 1.215%.

What about the “% methemoglobin formed, CYP 2E1” value (CYP 2E1) of the same compound?
Its value is 16.890 ± 1.978%.

What about the “% methemoglobin formed, CYP 2A6” value (CYP 2A6) of the same compound?
Its value is 2.435 ± 0.786%.

And the “% methemoglobin formed, CYP 2C8” value (CYP 2C8)?
Its value is 2.025 ± 0.222%.

What about the “% methemoglobin formed, CYP 2C19” value (CYP 2C19) of the same compound?
Its value is 2.300 ± 0.816%.

What about the “% methemoglobin formed, CYP 2C9” value (CYP 2C9) of the same compound?
The value was 0.450 ± 0.530%.

Reference: patent US20070190188A1, “Controlling Toxicity of Aminoquinoline Compounds” (The University of Mississippi, priority 2005, published 2007)
